Molecular target: T1, soluble H-2K^b (Mus musculus, UniProt P01901)
T1 construct: heavy chain residues 1-274 with C-terminal His-tag and β2-microglobulin residues 1-99; His-tag (C); made in house; host or cells: Drosophila melanogaster cells
T1 sequence (P01901 22-295): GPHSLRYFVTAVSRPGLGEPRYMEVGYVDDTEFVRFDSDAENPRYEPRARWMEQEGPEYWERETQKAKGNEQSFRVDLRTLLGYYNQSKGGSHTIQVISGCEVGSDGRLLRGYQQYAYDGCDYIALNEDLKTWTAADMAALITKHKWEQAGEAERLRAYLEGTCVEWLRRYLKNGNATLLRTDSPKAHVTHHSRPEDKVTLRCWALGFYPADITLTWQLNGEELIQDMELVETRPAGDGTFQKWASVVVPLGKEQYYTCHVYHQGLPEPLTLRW
T1 sequence (P01887 21-119 partner): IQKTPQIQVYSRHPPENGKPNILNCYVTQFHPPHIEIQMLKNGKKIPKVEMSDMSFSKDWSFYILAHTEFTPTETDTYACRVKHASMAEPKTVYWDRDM
Assay: Affinity measurements for binding of peptides to soluble H-2K^b (inhibition assay)
Protocol: The soluble extracellular domains of H-2K^b (heavy chain […]-terminal His-tag and β2-microglobulin […]. melanogaster cells, under the control of a metallothionein promoter as previously described. Briefly, D. melanogaster cells were expanded to large scale (up to 6 L) in serum free Insect Xpress® media (Cambrex Corporation, East Rutherford, N.J., United States of America) and CuSO4 (625 μM final concentration) was added 3-5 days before harvesting to induce expression of H-2K^b. The supernatant was concentrated using a […] tangential flow concentrator (PALL Corporation, East Hills, N.Y., United States of America) using a 10 kDa MWCO membrane (PALL) and then loaded onto an Ni-NTA column and eluted using 10-250 mM imidazole buffer gradient, pH 7.5. […] Affinity measurements for binding of peptides to soluble H-2K^b molecules were performed as previously described.

Compound `CC(C)C[C@H](NC(=O)[C@H](C)NC(=O)[C@@H]1CCCN1C(=O)[C@H](Cc1ccc(O)cc1)NC(=O)[C@H](CC(N)=O)NC(=O)CNC(=O)[C@@H]1CCCN1C(=O)[C@H](C)NC(=O)[C@@H](N)Cc1ccccc1)C(=O)O` [SEV9, FAPGNYPAL, reference compound] has a Kd (KD 4° C.) of 5 nM, a Kd (KD 23° C.) of 3 nM and a Kd (KD 37° C.) of 30 nM.

Reference: patent US20090317414A1, “CANCER VACCINE COMPRISING A MUCIN 1 (MUC1) T CELL EPITOPE-DERIVED PEPTIDE” (4G VACCINES PTY LTD, priority 2006, published 2009)
